Patent US20210077420A1, “Methods of Treatment of Gout” (priority 2017, published 2021)

Assay: Solubility enhancement of MSU crystals in phosphate buffered saline (Examples 2A, 2B)
Format: physicochemical
Settings: Table 2
Procedure: A phosphate buffered saline diluent was prepared by dissolving 8.2 g of NaCl and 0.68 g of KH2PO4 in 500 mL of deionised water in a 1 L flask. An NaOH solution was prepared by dissolving 0.399 g of NaOH in 100 mL of deionised water. 39.1 mL of the 0.1 M NaOH solution was then added to the 1 L flask and the volume was made up to 1 L with deionised water. The pH was adjusted to 7.4.
Approximately 5 mg of monosodium urate crystals was then suspended in 4.75 mL of the phosphate buffered saline diluent. […] This was then stirred for about 16 hours.

[1] = 5% by volume solubility enhancer in PBS pH 7.4, control = 100%

% vs control [1]	% vs control (1% by volume solubility enhancer in PBS)	% vs control (2.5% by volume solubility enhancer in PBS)	% vs control (10% by volume solubility enhancer in PBS)	Structure (SMILES)
115%				CCCCC/C=C\C/C=C\CCCCCCCC(=O)O [Linoleic acid]
144%	128%	131%	153%	CCOCCOCCO [Transcutol, 2-(2-ethoxyethoxy)ethanol]
